A short description of this data set: clinical. The conditions noted are these: male, human, in vivo, po, time of maximum plasma concentrations after dosing. The text has this:
Thirty six healthy male volunteers (Caucasian, Black and Hispanic) were enrolled in this study, which was designed as an open label, single dose, 3-way crossover study.

The Tmax is the time from dosing to the highest level. `NC(=O)CC[C@@H]1NC(=O)[C@H](Cc2ccccc2)NC(=O)[C@H](Cc2ccc(O)cc2)NC(=O)CCSSC[C@@H](C(=O)N2CCC[C@H]2C(=O)N[C@H](CCCN=C(N)N)C(=O)NCC(N)=O)NC(=O)[C@H](CC(N)=O)NC1=O` [desmopressin, 1-desamino-8-D-arginine vasopressin]: the Tmax is 1.06 h.

For the origin of these results see patent US7947654B2, “Pharmaceutical formulations” (Ferring B.V., priority 2002, dated 2011).
